# AlphaSeq binding of Ab-14 heavy chain variants to a spike HR2 peptide

Source: Li et al. 2023 (doi:10.1038/s41467-023-39022-2), MIT Lincoln Laboratory and A-Alpha Bio; data file from the FLAb repository.

Target peptide (SARS-CoV-2 spike, HR2 region): PDVDLGDISGINAS

Parent: Ab-14, a human scFv built as VH, three GGGGS repeats, VL. Only the CDRs of the heavy chain vary.
VH: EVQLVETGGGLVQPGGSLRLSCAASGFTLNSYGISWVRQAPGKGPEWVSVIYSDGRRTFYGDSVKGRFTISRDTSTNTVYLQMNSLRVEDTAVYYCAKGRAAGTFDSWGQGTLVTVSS
VL: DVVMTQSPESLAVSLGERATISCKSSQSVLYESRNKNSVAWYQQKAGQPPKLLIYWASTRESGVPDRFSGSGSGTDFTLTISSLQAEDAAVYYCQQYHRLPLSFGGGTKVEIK

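The parent was found by panning a naive human phage display library on the peptide. These sequences belong to a second round, designed from the earlier measurements on random variants of the parent. Group labels follow the data file (Ctrl: baseline library sampled from a position-specific scoring matrix, with some repeated check sequences; En: ensemble of fine-tuned language models; HC: hill climbing; Gen: genetic algorithm; Gibbs: Gibbs sampling; a sequence that several methods proposed may carry one label only). The assay is AlphaSeq: two haploid yeast populations carry antibody and antigen on their surface. Binding brings cells together so that they mate, and sequencing counts the barcode pairs among the diploids. Read counts were normalised to the haploid input and turned into Kd by a linear fit to BCL2-family pairs of known affinity, for each replicate. Mating was done six times.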

Variants are written as CDR1, CDR2 and CDR3 of the heavy chain (limits as in the source). Parent: GFTLNSYGIS, VIYSDGRRTFYGDSVK, GRAAGTFDS.
Variants here have more than six changes.
Kd is apparent (estimated from mating counts) and averaged on the log scale over replicates with a signal. Smaller is tighter.
A pair that was not seen in any replicate is written "nd"; this usually means weak binding, but a binder can also be missed.
The authors averaged sequences with at least three values out of six and counted those with two or fewer as poor binders.
The parent sequence was in this pool as ten entries: three were never detected, three once, and four in most replicates, with averages from 2.2 nM to 240 nM.
Empty control strains, which show no peptide, gave a signal in 1% of pairings with all heavy chain designs; the median was 120 nM and 95% of these signals were weaker than 7.0 nM. No background was subtracted.
Values of this round are not directly comparable with the first-round values of the same sequences.

- GFDLDEYGIS, VIYADGRRTFYADSVK, GEVAGTFDV [En_Gen] -> 660 pM (6 of 6 replicates)
- GMKLQDYGIS, VIYADGVRTAFKESVK, GQIAGTFNF [En_Gibbs] -> 56 nM (2 of 6 replicates)
- GFDLNEYGIS, VIYADGSRTAYADSVK, GEVAGTFDQ [En_Gen] -> 910 pM (6 of 6 replicates)
- GFDLDEYGIS, VIYADGRRTFYQDSVK, GGNAGTFDQ [En_HC] -> 540 pM (6 of 6 replicates)
- GKDLQEYGIS, VIYADGARTAYSNSVK, GTQDGSLIV [En_Gibbs] -> 1.1 nM (6 of 6 replicates)
- GFDLNEYGIS, VIYADGKRTAYSDSVK, GTNAGTFDL [En_Gen] -> 700 pM (6 of 6 replicates)
- GETLNSYGIS, VIYSDGRRTFYGGEVK, GEFAGTFTV [Ctrl] -> nd (0 of 6 replicates)
- GFNLNEYGIS, VIYADGRRKFYADSVK, GNTAGTFDT [En_HC] -> 1.0 nM (6 of 6 replicates)
- GFQLDEYGIS, VIYADGRRTFYQDSVK, GEVAGTFDS [En_HC] -> 730 pM (6 of 6 replicates)
- GFDLEEYGVS, VIYADGNRSQYIDAVK, GIIGDNVSV [En_Gibbs] -> nd (0 of 6 replicates)
- GFLIDEFGIS, VIYADGKRTSYSDTVK, GQLGNAFDL [En_Gibbs] -> nd (0 of 6 replicates)
- GFDLDEYGIS, VIYADGQRTAYADDVK, GNVAGTFDI [En_Gen] -> 1.2 nM (5 of 6 replicates)
- GFDLDEYGIS, VIYADGVRTFYADSVK, GENAGTFDV [En_Gen] -> 220 pM (6 of 6 replicates)
- GFQLTEYGIS, VIYADGRRTAYSQSVK, GLNGGIIDV [En_Gibbs] -> nd (0 of 6 replicates)
- GFDLNEYGIS, VIYADGRRTFYIDSVK, GEQAGTFIM [En_HC] -> 13 nM (6 of 6 replicates)
- GFNLGEYGIS, VIYADGKRMAYAWSVK, GKSAGTFNH [En_Gibbs] -> nd (0 of 6 replicates)
- GFDLNEYGIS, VIYADGMRTVYADSVK, GQNAGTFDL [En_Gen] -> 430 pM (6 of 6 replicates)
- GFDLNEYGIS, VIYADGRRTQYIDSVK, GNQAGTFDA [En_HC] -> 670 pM (6 of 6 replicates)
- GFDLNEYGIS, VIYADGMRTQYIDSVK, GEQAGTFDS [En_HC] -> 740 pM (6 of 6 replicates)
- GFDLDEYGIS, VIYADGMRTAYSDSVK, GNTAGTFDI [En_Gen] -> 210 pM (6 of 6 replicates)
- GFDLNEYGIS, VIYADGVRTAYADDVK, GNQAGTFDM [En_Gen] -> 290 pM (6 of 6 replicates)
- EFDLMEYGIS, VIYADGHRTFYAEHVK, GTNSGVFDT [En_Gibbs] -> nd (0 of 6 replicates)
- GFNLDEYGIS, VIYADGQRVSYDDPVK, GEQGGTVMV [En_Gibbs] -> nd (0 of 6 replicates)
- GFDLDEYGIS, VIYADGRRTFYADSVK, GENAGTFDV [En_Gen] -> 720 pM (6 of 6 replicates)
- GFLLNEYGIS, VIYADGLRTQYAESFK, GDLAGYLDS [En_Gibbs] -> 190 nM (1 of 6 replicates)
- GFDLNEYGIS, VIYADGMRTAYSDDVK, GEVAGTFDQ [En_Gen] -> 770 pM (6 of 6 replicates)
- GFDINEYGIS, VIYADGKKTAFANSVK, GESAGTFDD [En_Gibbs] -> 6.9 nM (6 of 6 replicates)
- GFDLNEYGIS, VIYADGMRTFYADSVK, GETAGTFDT [En_Gen] -> 200 pM (6 of 6 replicates)
- GFDLNEYGIS, VIYADGSRTAYADNVK, GNQAGTFDV [En_Gen] -> 730 pM (6 of 6 replicates)
- GFDLDEYGIS, VIYADGRRTFYSDNVK, GEAGGTFDI [En_HC] -> nd (0 of 6 replicates)
- GFGLDEYGIS, VIYADGQRYAYKNSVK, GGDDITGLY [En_Gibbs] -> nd (0 of 6 replicates)
- GFDLNEYGIS, VIYADGLRTFYTDSVK, GEFAGTFDV [En_HC] -> 8.8 nM (6 of 6 replicates)
- GFDLNEYGIS, VIYADGRRTFYADSVK, GNTAGTFLM [En_HC] -> 340 pM (6 of 6 replicates)
- GFNLEDYGIS, VIYADGRRTSYVDSVK, GKVAGTFDV [En_HC] -> 600 pM (6 of 6 replicates)
- GFDLNEYGIS, VIYADGMRTFYTDSVK, GEVAGTFDT [En_HC] -> 1.7 nM (6 of 6 replicates)
- EDSLNEYGIS, VIYADGMRAAYADPVK, GENDGLFDQ [En_Gibbs] -> 21 µM (1 of 6 replicates)
- GYSLEDYGIS, VIYADGRRTAYAADVK, GQEGNVVAG [En_Gibbs] -> 440 pM (6 of 6 replicates)
- GFDLNEYGIS, VIYADGKRTFYSDSVK, GNAGGTFDT [En_HC] -> 930 pM (6 of 6 replicates)
- GFDLNEYGIS, VIYADGKRTSYADSVK, GNNAGTFDV [En_Gen] -> 170 pM (6 of 6 replicates)
- GFDLNEYGIS, VIYADGRRTFYADSVK, GEAAGTFNI [En_HC] -> 300 pM (6 of 6 replicates)
- GFDLNEYGIS, VIYADGVRTAYTDSVK, GQVAGTFDV [En_Gen] -> 250 pM (6 of 6 replicates)
- GFNLDEYGIS, VIYADGMRTVFADNVK, GQNVGFTVF [En_Gibbs] -> nd (0 of 6 replicates)

The 6 strongest on average among those seen in every replicate, once more:

{"CDR-H1": "GFDLNEYGIS", "CDR-H2": "VIYADGKRTSYADSVK", "CDR-H3": "GNNAGTFDV", "group": "En_Gen", "apparent Kd": "170 pM", "replicates with signal": "6 of 6"}
{"CDR-H1": "GFDLNEYGIS", "CDR-H2": "VIYADGMRTFYADSVK", "CDR-H3": "GETAGTFDT", "group": "En_Gen", "apparent Kd": "200 pM", "replicates with signal": "6 of 6"}
{"CDR-H1": "GFDLDEYGIS", "CDR-H2": "VIYADGMRTAYSDSVK", "CDR-H3": "GNTAGTFDI", "group": "En_Gen", "apparent Kd": "210 pM", "replicates with signal": "6 of 6"}
{"CDR-H1": "GFDLDEYGIS", "CDR-H2": "VIYADGVRTFYADSVK", "CDR-H3": "GENAGTFDV", "group": "En_Gen", "apparent Kd": "220 pM", "replicates with signal": "6 of 6"}
{"CDR-H1": "GFDLNEYGIS", "CDR-H2": "VIYADGVRTAYTDSVK", "CDR-H3": "GQVAGTFDV", "group": "En_Gen", "apparent Kd": "250 pM", "replicates with signal": "6 of 6"}
{"CDR-H1": "GFDLNEYGIS", "CDR-H2": "VIYADGVRTAYADDVK", "CDR-H3": "GNQAGTFDM", "group": "En_Gen", "apparent Kd": "290 pM", "replicates with signal": "6 of 6"}